Assay results taken from publication PMC7464559, “Synthesis, Optimization, Antifungal Activity, Selectivity, and CYP51 Binding of New 2-Aryl-3-azolyl-1-indolyl-propan-2-ols” (Pharmaceuticals, 2020).

Target: T1, retinoic acid 4-hydroxylase (CYP26A1) (Homo sapiens, UniProt O43174)
T1 construct: endogenous in cells; host or cells: MCF-7 human breast cancer cells
T1 sequence (O43174 1-497): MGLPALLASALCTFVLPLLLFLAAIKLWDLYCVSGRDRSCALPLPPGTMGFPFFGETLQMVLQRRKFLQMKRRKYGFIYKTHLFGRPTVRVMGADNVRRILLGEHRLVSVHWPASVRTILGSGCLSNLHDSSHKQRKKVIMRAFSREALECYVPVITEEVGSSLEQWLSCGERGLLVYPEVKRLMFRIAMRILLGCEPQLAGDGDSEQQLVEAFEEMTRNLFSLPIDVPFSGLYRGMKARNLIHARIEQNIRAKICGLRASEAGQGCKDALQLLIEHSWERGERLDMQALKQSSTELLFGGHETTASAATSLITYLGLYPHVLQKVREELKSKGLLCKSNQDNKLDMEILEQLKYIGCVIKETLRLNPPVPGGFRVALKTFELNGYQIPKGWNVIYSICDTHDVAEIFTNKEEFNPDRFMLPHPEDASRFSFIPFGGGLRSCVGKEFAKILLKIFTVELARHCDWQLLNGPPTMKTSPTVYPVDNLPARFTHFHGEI
Assay: MCF-7 cellular assay for inhibition of metabolism of all-trans retinoic acid
Assay type: cell-based
Settings: mean (±5%) of two experiments

IC50: 7 µM
Structure (SMILES): Clc1cccc(C(c2ccc3[nH]cnc3c2)n2ccnc2)c1 (stereo not shown) [liarozole, reference compound]
